Assay results published in PMC3460729, “Innate immune properties of selected human neuropeptides against Moraxella catarrhalis and nontypeable Haemophilus influenzae” (BMC Immunology, 2012).

Tests used:
[1] = test system: nontypeable H. influenzae NTHi3, NTHi6; details: 100 μM
Protocol: For the time kill assay from 0 to 1.5 h, overnight cultures of Mc and NTHi were inoculated into new medium and incubated under the relevant conditions until early log-phase (OD600 = 0.25–0.3). The bacteria were diluted in 10 mM sodium phosphate buffer, NaPB, (pH 7.4) containing 1% (w/v) BHI to obtain ~2 x 10^6 CFU/ml. […] After each time of incubation the suspensions were 10-fold serially diluted with 10 mM NaPB-1% BHI and 20 μl aliquots were plated in triplicate on BHI (M. catarrhalis) or HAEM (H. influenzae) agar plates. The plates were incubated overnight at 37°C in 5% CO2 conditions. Simultaneously, the incubation of bacteria in the presence of an appropriate diluent was included for positive control of bacterial growth. The colony counts and CFU/ml were calculated next day. The bactericidal activity of neuropeptides was expressed as survival ratios determined as the numbers of CFU after neuropeptide incubation divided by the numbers of CFU estimated from a control plate (time 0). All antimicrobial assays were performed at least two times in triplicate.

[2] = test system: human PMNs; test: fMLF-induced ROS generation by PMNs, luminol-dependent chemiluminescence; assay type: cell-based; details: for ROS release [% of control]: 0.2 μM fMLF, peak height PHCL, mean of three independent experiments
Protocol: (§1) Polymorphonuclear leukocytes (PMNs) from healthy young adult volunteers were isolated from venous blood samples anticoagulated with Lithium-heparin (7.5 ml) by ficoll (Aqua-Med, Poland) density gradient centrifugation (2000 rpm/30 min), followed by hypotonic lysis of erythrocytes with a lysing buffer (0.83% NH4Cl, 0.1% KHCO3, EDTA, pH 7.4). After two washes (1400 rpm/10 min) in PBS, PMNs were resuspended to the final concentration of […] cells/ml in phagocytic buffer: HBSS with Ca^++ and Mg^++ supplemented with 1% HiFBS. The purity of granulocyte suspensions was checked using 15 μg/ml of acridine orange. […] Isolated PMNs were kept for 30 min at 37°C and 5% CO2 until used.
Reactive oxygen species (ROS) formation by PMNs was measured using luminol-dependent chemiluminescence assay (CL) in white flat-bottom 96-well microplates (NUNC, Denmark). The reaction mixture of total volume 200 μl in each well contained: 100 μl of PMN suspension in HBSS–Ca^++Mg^++ (10^5 cells/well), 40 μl of luminol (50 μM/well), 40 μl of fMLP (0.2 μM/well), 20 μl of particular NP (in the range 10^−12–10^−8 M/well). In other experiments, the respiratory burst was triggered by phagocytosis of 40 μl heat killed (56°C/30 min) M. catarrhalis ATCC 25238 or H. influenzae ATCC 49247 at concentration of ½ of OD600 = 1 or OD600 = 1, respectively. […] The PMA stimulus at 0.1 μM final concentration was used as positive control of the relevant oxidative stress. The CL kinetics was measured at constant 37°C temperature using luminometer (Microlumat, LB96P, Berthold) and recorded as relative light units (RLU). Measuring conditions for fMLP were: interval (46 s), run time (up to 30 min). The conditions for bacterial and PMA stimulation were: interval (83 s), run time (up to 60 min). The maximal value of CL response curve was expressed as peak height (PHCL) for fMLP stimulant. In other cases the area under chemiluminescence curve (AUCCL) was calculated. Each sample was run in triplicate and the values were averaged. […] Results were expressed as mean ± SD.

[3] = test system: M. catarrhalis ATCC 25238, Mc5, Mc6; details: ATCC 25238, 3 h
Protocol: (§2) For the radial diffusion assay a mid-log phase bacteria were diluted to the concentration of ~ 1–2 × 10^6 CFU/ml in 10 ml of melted and cooled to 42°C, 1% agarose (w/v, molecular biology grade) in 10 mM sodium phosphate containing 1/100 dilution of full strength BHI and 0.02% (v/v) Tween 20 (Sigma). After vigorous mixing, the bacteria in the agarose were poured onto Petri plate forming under-layer in which 3 mm diameter sterile wells were cut. The wells were filled with serially diluted neuropeptides (5 μl) at concentrations ranging from 10^−6 M to 10^−3 M and plates were incubated for 3 h at 37°C to allow peptide diffusion. The plates were then overlaid with 10 ml of the buffered 1% agarose containing 6% BHI (w/v) and allowed to harden. […] The MIC value was determined as the x-axis intercept obtained from the relationship between the diameter of radial diffusion zones versus NP concentration. […] Polymyxin B was used as a positive control.

[4] = test system: H. influenzae ATCC 49247, NTHi3, NTHi6; details: ATCC 49247, 3 h
Protocol: as §2

[5] = test system: human PMNs stimulated with M. catarrhalis ATCC 25238; test: M. catarrhalis-stimulated ROS generation by PMNs, luminol-dependent chemiluminescence; assay type: cell-based; details: 10^−8 M NP, nonopsonized M. catarrhalis; mean ± SD, n = 5-6 donors
Protocol: as §1
Reactive oxygen species (ROS) formation by PMNs was measured using luminol-dependent chemiluminescence assay (CL) in white flat-bottom 96-well microplates (NUNC, Denmark). The reaction mixture of total volume 200 μl in each well contained: 100 μl of PMN suspension in HBSS–Ca^++Mg^++ (10^5 cells/well), 40 μl of luminol (50 μM/well), 40 μl of fMLP (0.2 μM/well), 20 μl of particular NP (in the range 10^−12–10^−8 M/well). […] The maximal value of CL response curve was expressed as peak height (PHCL) for fMLP stimulant. In other cases the area under chemiluminescence curve (AUCCL) was calculated. […] Results were expressed as mean ± SD.

## CC(C)C[C@H](NC(=O)CNC(=O)[C@H](C)NC(=O)[C@H](CC(C)C)NC(=O)[C@H](CCCNC(=N)N)NC(=O)[C@H](Cc1c[nH]cn1)NC(=O)[C@@H](NC(=O)[C@@H](NC(=O)[C@@H]1CSSC[C@H](NC(=O)[C@H](C)N)C(=O)N[C@@H](CC(=O)O)C(=O)N[C@@H]([C@@H](C)O)C(=O)N[C@@H](C)C(=O)N[C@@H]([C@@H](C)O)C(=O)N1)C(C)C)[C@@H](C)O)C(=O)N[C@@H](CC(C)C)C(=O)N[C@@H](CO)C(=O)N[C@@H](CCCNC(=N)N)C(=O)N[C@@H](CO)C(=O)NCC(=O)NCC(=O)N[C@H](C(=O)N[C@H](C(=O)N[C@@H](CCCCN)C(=O)N[C@@H](CC(N)=O)C(=O)N[C@@H](CC(N)=O)C(=O)N[C@@H](Cc1ccccc1)C(=O)N[C@H](C(=O)N1CCC[C@H]1C(=O)N[C@H](C(=O)N[C@@H](CC(N)=O)C(=O)N[C@H](C(=O)NCC(=O)N[C@@H](CO)C(=O)N[C@@H](CCCCN)C(=O)N[C@@H](C)C(=O)N[C@@H](Cc1ccccc1)C(N)=O)C(C)C)[C@@H](C)O)C(C)C)C(C)C)C(C)C [CGRP, Calcitonin gene related peptide]
[1]
  type of antibacterial effect: bacteriostatic
[2]; 10^-8 M NP
  ROS release [% of control]: 266.41^a % of control
[2]; 10^-10 M NP
  ROS release [% of control]: 164.35^a % of control
[2]; 10^-12 M NP
  ROS release [% of control]: 153.47^b % of control
[2]; neuropeptide alone, without stimulus
  activation of respiratory burst of PMNs: did not activate
[3]
  MIC: > 132 µM
[4]
  MIC: > 132 µM
[5]
  increase of mean AUCCL: 40.5 ± 22.3%

Marks after values point to notes of the source that are not given here.
